Values of other authors, collected in article PMC9138102, “The Role of ZIP9 and Androgen Receptor in the Establishment of Tight Junctions between Adult Rat Sertoli Cells” (Biology, 2022).

Conditions: cited from earlier work

Substance: testosterone 3-(O-carboxymethyl)-oxime:bovine serum albumin-fluorescein isothiocyanate conjugate [T-BSA-FITC]
- Plasma membrane permeability: plasma membrane-impermeable
